Results published in PubChem BioAssay AID504700 (The Scripps Research Institute Molecular Screening Center, 2011).
The entries are a selection whose mix differs from that of the whole data set. Calls of active or inactive are those of the source.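 How the source made its calls: active means activation above a cutoff set at the mean over all compounds plus 3 SD (cut at about 18% in these data); inactive means the rest.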

Protein sequences, listed by entry. Tags and fused reporters are not part of them.
UniProt P31323, whole entry, looked up: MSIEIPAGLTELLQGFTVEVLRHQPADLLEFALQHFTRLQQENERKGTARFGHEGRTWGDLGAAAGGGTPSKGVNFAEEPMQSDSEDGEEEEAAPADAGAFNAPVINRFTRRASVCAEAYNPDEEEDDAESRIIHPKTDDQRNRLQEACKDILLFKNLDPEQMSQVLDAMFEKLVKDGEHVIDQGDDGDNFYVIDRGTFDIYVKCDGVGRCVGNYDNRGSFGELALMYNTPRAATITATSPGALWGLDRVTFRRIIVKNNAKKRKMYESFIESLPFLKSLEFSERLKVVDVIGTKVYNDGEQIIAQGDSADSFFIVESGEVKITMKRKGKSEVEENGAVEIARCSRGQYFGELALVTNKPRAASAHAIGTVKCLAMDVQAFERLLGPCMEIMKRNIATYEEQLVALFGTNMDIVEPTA

Target: cAMP-dependent protein kinase catalytic subunit beta (Homo sapiens) + cAMP-dependent protein kinase type II-beta regulatory subunit (Homo sapiens) (UniProt P22694+P31323)
Experiment: compounds dissociating PKAc from R2B subunit – biochemical, fluorescence polarization, Cy5-IP20, human, primary screen (AID 504700);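 further: higher means more holoenzyme dissociation and a rise in polarization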
Conditions: PKA-R2B holoenzyme dissociation, at 11.4 µM, hits give high values, 0% DMSO only, 100% 113 µM cGMP, R2B truncated from residue 108, S112A mutant

SMILES | activation
CC(=O)N1C2C3N(C(C)=O)C1C1N(C(C)=O)C(C(N1C(C)=O)N3C(C)=O)N2C(C)=O | inactive: -2.01%
CCN(/C(=N/P(=O)(N1CCOCC1)N1CCOCC1)N1CCOCC1)c1ccc(OC)cc1 | inactive: -4.89%
Nc1ccc([As](=O)(O)c2ccc(N)cc2)cc1 | inactive: 11.5%
C[N+]1=C2C=CC=CC=C2SC12C([N+](=O)[O-])=CC([N+](=O)[O-])=C[C-]2[N+](=O)[O-] (stereo not drawn) | inactive: 3.22%
c1cc(-c2nn[nH]n2)ccc1-c1nn[nH]n1 | inactive: -11%
CC1CCN(C(=O)Oc2c(Cl)cc(Cl)c3cccnc23)CC1 | inactive: 1.08%
CC(C)=N/N=C(\N)N[N+](=O)[O-] | inactive: 9.53%
CC(C)c1nc(Nc2ccccc2)n(P(=O)(N(C)C)N(C)C)n1 | inactive: 3.32%
CN(C)C(=O)OCCc1n(C)cc[n+]1C | inactive: -2.34%
O=P1(N(CCCl)CCCl)OCCCS1 (stereo not drawn) | inactive: -8.3%
O=C(Nc1cc([As](=O)(O)O)ccc1O)c1ccccc1 | inactive: 0.21%
O=[N+]([O-])c1ncn(CCn2ncnc2[N+](=O)[O-])n1 | inactive: 7.44%
CC(C)(C)C(=O)NC(Sc1ccncn1)C(Cl)(Cl)Cl (stereo not drawn) | inactive: -6.73%
O=C(O)CNc1ccc([As](=O)(O)O)cc1 | inactive: -0.17%
O=[N+]([O-])c1cccc(NC2=NCC(CBr)S2)c1 (stereo not drawn) | inactive: 4.97%
COC(=O)C1(C)COP(=O)(Nc2ccccc2)OC1 (stereo not drawn) | inactive: 5.57%
CCOC(=O)Nc1ccc([As](=O)(O)O)c(O)c1 | inactive: 5.03%
O=C(O)C(O)c1ccc(N(CCCl)CCCl)cc1 (stereo not drawn) | inactive: 1.01%
CC1CCNP(=O)(N(CCCl)CCCl)O1 (stereo not drawn) | inactive: -5.64%
COP(=O)(OC)N1CC1c1ccccc1 (stereo not drawn) | inactive: 5.8%
CCCCOc1ccc(C(=O)NCC2(N3CCCCC3)CCCCC2)cc1OC | inactive: -0.51%

SMILES | activation
Cc1cc(SC(NC(=O)c2ccccc2)C(Cl)(Cl)Cl)nc(C(C)C)n1 (stereo not drawn) | inactive: 4.18%
CCOC(=O)Nc1cccc([As](=O)(O)O)c1 | inactive: 7.2%
O=P(Nc1ccccn1)(c1cccc2ccccc12)c1cccc2ccccc12 | inactive: -6.79%
Cc1cc(SC(NC=O)C(Cl)(Cl)Cl)ncn1 (stereo not drawn) | inactive: -5.66%
O=[N+]([O-])c1ccc(Nc2ccc(Oc3ccc([N+](=O)[O-])cc3[N+](=O)[O-])cc2)c([N+](=O)[O-])c1 | inactive: -0.63%
COP1(=S)c2c(C)nn(CCC#N)c2N=C(c2ccc(F)cc2)N1C (stereo not drawn) | inactive: 8.14%
O=C(O)C(=O)c1ccc(N(CCCl)CCCl)cc1 | inactive: -4%
O=C(COc1ccccc1)OC1CN2CCC1CC2 (stereo not drawn) | inactive: 2.75%
O=C(Nc1ccncc1[N+](=O)[O-])c1ccc([N+](=O)[O-])cc1[N+](=O)[O-] | inactive: 3.4%
O=C(OC1CN2CCC1CC2)c1cccc([N+](=O)[O-])c1 (stereo not drawn) | inactive: -5.31%
CSc1ccc(Nc2c([N+](=O)[O-])cc([N+](=O)[O-])cc2[N+](=O)[O-])cc1 | inactive: 5.47%
CCOC(=O)c1ccc(NC(=O)C(C)(CCl)SC)cc1 (stereo not drawn) | inactive: 5.97%
CCC(C)N(CC(C)C)C(=S)SC(NC(C)=O)C(Cl)(Cl)Cl (stereo not drawn) | inactive: -1.68%
Cc1c2c(nc3ccccc13)SC(C(Cl)Cl)C2 (stereo not drawn) | inactive: 5.98%
O=C(OC1CN2CCC1CC2)C12CC3CC(CC(C3)C1)C2 (stereo not drawn) | inactive: -5.11%
Cc1cc(=O)[nH]c(N[N+](=O)[O-])n1 | inactive: -0.1%
O=P1(N(CCCl)CCCl)OCCCN1CCCl (stereo not drawn) | inactive: -0.41%
O=P1(N(CCCl)CCCl)Nc2ccccc2N1 | inactive: -4.42%
COc1ccc2nc(NP(=O)(c3ccccc3)c3ccccc3)sc2c1 | inactive: 8.56%
COc1cc(I)ccc1[As](=O)(O)O | inactive: 2.79%
O=[N+]([O-])c1cc(Oc2ccc([N+](=O)[O-])cc2C(F)(F)F)cc([N+](=O)[O-])c1 | inactive: 3.53%

SMILES | activation
COc1ccc(N/C(=N/P(=O)(N2CCOCC2)N2CCOCC2)N2CCOCC2)cc1 | inactive: -5.9%
C[As](=O)(O)c1cccc(C(=O)O)c1 | inactive: -2.59%
O=[As](O)(c1ccc(O)cc1)c1ccccc1O | inactive: -8.49%
COc1cc(C(=O)NCC2(N3CCOCC3)CCCCC2)ccc1OCC(C)C | inactive: -7.73%
O=[N+]([O-])c1ccc(-c2cc([N+](=O)[O-])c(O)c([N+](=O)[O-])c2)cc1 | inactive: -20.3%
Cc1ccc(OP(=O)(Nc2ccc([N+](=O)[O-])cn2)Oc2ccc(C)cc2)cc1 | inactive: 2.42%
Cc1ccc2nc3c(c(C)c2c1)CC(C(Cl)Cl)S3 (stereo not drawn) | inactive: -9.14%
ClCCSc1nnc(-c2cccnc2)o1 | inactive: -7.25%
CC(C)c1ccc(OP(=O)(Nc2ccccn2)Oc2ccccc2F)cc1 (stereo not drawn) | inactive: 2.21%
COC(=O)C1(C)COP(=O)(N2CCCCCC2)OC1 (stereo not drawn) | inactive: 11.4%
CCN(CC)C(=S)SC(NC=O)C(Cl)(Cl)Cl (stereo not drawn) | inactive: 7.9%
O=C(OC1CN2CCC1CC2)c1cccc2[nH]cnc12 (stereo not drawn) | inactive: -3.2%
O=[N+]([O-])c1cc([N+](=O)[O-])c(-c2ccn[nH]2)s1 | inactive: 3.4%
CCOP1(=S)c2c(C)nn(CCC#N)c2N=C(c2ccccc2F)N1C (stereo not drawn) | inactive: -15.2%
O=P(Nc1nccs1)(c1ccccc1)c1nc2ccccc2s1 (stereo not drawn) | inactive: -2.82%
O=P(Nc1nccs1)(Oc1ccccc1)Oc1ccccc1 | inactive: 0.97%
CS(=O)(=O)c1cc([N+](=O)[O-])c2no[n+]([O-])c2c1 | inactive: -6.42%
Nc1ccccc1[As](=O)(O)c1ccccc1 | inactive: 9.16%
O=C(O)COc1ccc([As](=O)(O)O)cc1[N+](=O)[O-] | inactive: 4.14%
NC(=O)Nc1ccc([As](=O)(O)O)cc1 | inactive: 8.33%
N#CCCN(C(=O)COC(=O)C(O)(c1ccccc1)c1ccccc1)c1ccc(F)cc1 | inactive: 4.37%
